Apparent affinities of Ab-14 variants for a coronavirus HR2 peptide

From the AlphaSeq antibody data of Engelhart et al. 2022 (doi:10.1038/s41597-022-01779-4), copy in the FLAb collection.

Binding partner: SARS-CoV-2 spike HR2 peptide, sequence PDVDLGDISGINAS.

Parent scFv Ab-14: VH joined to VL by a (GGGGS)3 linker. Changes lie in the light chain CDRs alone.
VH: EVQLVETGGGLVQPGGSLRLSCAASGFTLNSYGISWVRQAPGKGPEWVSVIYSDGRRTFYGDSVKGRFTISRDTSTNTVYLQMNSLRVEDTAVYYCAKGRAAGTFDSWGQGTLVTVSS
VL: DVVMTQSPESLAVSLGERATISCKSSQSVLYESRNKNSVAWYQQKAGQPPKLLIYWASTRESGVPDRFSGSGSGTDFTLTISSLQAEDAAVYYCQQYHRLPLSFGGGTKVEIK

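The parent was found by panning a naive human phage display library on the peptide. Library AAYL50 holds single substitutions and randomly drawn double and triple substitutions in the CDRs. AlphaSeq pools MATa yeast showing the antibodies with MATalpha yeast showing the peptide. After mating in shaken culture at 30 °C for 16 h, diploids were selected and their barcode pairs sequenced. A regression on co-assayed BCL2-family reference pairs converts the normalised counts of each replicate to an apparent Kd. There are three technical replicates.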

Variants are written as CDR1, CDR2 and CDR3 of the light chain (limits as in the source). Parent: KSSQSVLYESRNKNSVA, WASTRES, QQYHRLPLS. Numbers give log10(Kd / nM), so 0 is 1 nM and 3 is 1 µM. Smaller is tighter. A mean of the replicates is given; it leaves out those without a signal. "ND" means that the variant was in the library but no mating with the target was seen in that replicate; the authors take this as a sign of poor binding, and no number exists. Empty control strains, which show no peptide, gave a signal in 18% of pairings with library AAYL50; the median was 4.19 and 95% of these signals were weaker than 2.99. No background was subtracted. Also given: how often the same scFv was detected with the empty control strains, with their mean in brackets.

| CDR-L1 | CDR-L2 | CDR-L3 | log10 Kd, replicates | log10 Kd (nM), mean | control signals |
|---|---|---|---|---|---|
| KYSQSVLYESRCFNSVA | WASTRES | QQYHRLPLS | 1.79 1.73 1.91 | 1.81 | 2/9 (5.33) |
| KSSQSVLYESRNKNSVA | WASTRES | QQYHRLPPS | 1.22 1.42 1.38 | 1.34 | 0/9 |
| KSSQSVLHDSRNKNSVA | AASTRES | QQYHRLPLS | 4.25 ND ND | 4.25 | 2/9 (3.70) |
| KSSMSVLYESFNKNSVA | WASTRES | QQYHRLPES | ND ND ND | ND | 0/9 |
| KSSQSVLYASRNANSVA | WASTTES | QQYHRLPLS | 1.93 2.11 3.22 | 2.42 | 1/9 (4.28) |
| KSSQSVLYESRNKNDVA | WASTRES | QMYHRLLLS | 1.62 1.50 1.34 | 1.49 | 2/9 (4.64) |
| KSSQSVLYESENKNSVA | WASTRES | QQYHVLPLS | 0.28 0.52 0.46 | 0.42 | 3/9 (4.70) |
| KSSQHVLYESRNKNSVA | WASTRES | QQYHRLPLS | 3.78 ND ND | 3.78 | 4/9 (3.82) |
| KSSQSVLYESRNKNSVA | WASGRES | QIYHRLPLF | ND ND ND | ND | 2/9 (4.75) |
| KSSQSVLYESRKKNSVN | WCSTRES | QQYHRLPLS | ND ND ND | ND | 1/9 (2.59) |
| KGSQSVLYESRNKNSVA | WASTQES | QQYHRLPLS | ND ND ND | ND | 0/9 |
| KSSQSVLYESRNKNSVA | FASTMES | QQYHRLPLS | ND ND 5.38 | 5.38 | 2/9 (4.05) |
| KSSQSVLAESRNKNSVA | WASTRTS | PQYHRLPLS | ND ND ND | ND | 2/9 (3.03) |
| KSSQSVAYEWRNKNSVA | HASTRES | QQYHRLPLS | 0.40 0.59 0.59 | 0.53 | 0/9 |
| MSSQSVLYESRNKNSVA | WADTRES | QQYHRLPLV | 1.18 1.49 1.36 | 1.34 | 4/9 (4.43) |
| KSSQSVLYESRNKNSVA | WASTRES | QQLHSLPLS | ND 4.66 ND | 4.66 | 0/9 |
| KSQQSVLYESRNKNSVA | WASTRES | QWYDRLPLS | 1.67 1.72 1.89 | 1.76 | 0/9 |
| KSSQSVLYESRNKNSVA | WASTRES | NQYHQLPLS | 1.37 1.38 1.46 | 1.40 | 6/9 (4.33) |
| YSSQSVLYESRNKNSVA | WASTRES | QQYHRLPLS | 0.57 0.65 0.52 | 0.58 | 0/9 |
| KSSQSVLYEERNKNSVA | WASQRES | QQYHREPLS | 0.19 0.69 0.56 | 0.48 | 3/9 (4.29) |
| KSSQSVLDESRNMNSVA | WASTRES | QQYHRPPLS | ND 5.08 6.15 | 5.62 | 5/9 (4.31) |
| KSSQSVLYESRNKNSVA | WASEREE | QQYHILPLS | 0.92 1.03 0.77 | 0.91 | 0/9 |
| KSSQSVRYESRNTNSVA | WASTRVS | QQYHRLPLS | 0.48 0.81 0.61 | 0.63 | 1/9 (4.08) |
| DSDQSVLYNSRNKNSVA | WASTRES | QQYHRLPLS | 1.52 3.06 2.29 | 2.29 | 0/9 |
| FSSQSVLYESRNLNSVA | WASQRES | QQYHRLPLS | ND ND ND | ND | 0/9 |
| KSSQSVLYESRNKNSVA | WASTRES | QVYHRLPLS | ND 3.06 3.52 | 3.29 | 2/9 (4.64) |
| KSSLSVLWESRPKNSVA | WASTRES | QQYHRLPLS | 1.29 1.49 1.35 | 1.37 | 0/9 |
| KSSQHVLYESRNKNSVA | WASTYES | QQYHSLPLS | ND ND ND | ND | 4/9 (4.46) |
| KISQSVLYESRKKNSVA | WASTRES | QQYHRLPLS | 0.17 0.52 0.63 | 0.44 | 6/9 (4.62) |
| KSPQSVQYESRNKNSVA | WASTRES | QQYHRLRLS | ND ND ND | ND | 1/9 (1.31) |
| KSSQSVLYESRNKNSVA | WASTRES | QQYHELPLS | 2.69 2.68 2.93 | 2.77 | 6/9 (4.41) |
| KSSQSVLYESRMKNSVA | MASTRES | QQYCRLPLS | 2.55 2.44 2.73 | 2.57 | 8/9 (4.66) |
| WSSQSVLYESRNKMSVA | WASTRES | QQYHRYPLS | 4.43 4.17 4.10 | 4.23 | 1/9 (3.44) |
| KSSQSVLYESRNWNSVA | WVSTRES | QQYHRHPLS | ND ND ND | ND | 0/9 |
| KSSQSVLYEPRNKNSSA | WASTRES | QQYHRLPLS | ND ND ND | ND | 2/9 (4.27) |
| KSGQSVLYESRNKNSVS | WASTRES | QQYHRLPLI | 4.30 4.06 4.64 | 4.33 | 6/9 (5.35) |
| KRSQSVYYESRNKNSVA | WASTRES | QQYYRLPLS | 1.73 1.67 2.18 | 1.86 | 1/9 (4.41) |
| KSSQSVLYLIRNKNSVA | WSSTRES | QQYHRLPLS | 5.28 ND 4.71 | 5.00 | 2/9 (4.13) |
| KSSQWVLYESQNKNSRA | WASTRES | QQYHRLPLS | 3.94 3.28 5.38 | 4.20 | 2/9 (3.68) |
| KSSQGGLYERRNKNSVA | WASTRES | QQYHRLPLS | 1.49 1.73 1.67 | 1.63 | 1/9 (3.84) |
| KSSQSKLYESRWKNSVA | WASERES | QQYHRLPLS | ND 3.86 ND | 3.86 | 0/9 |
| KSSQSVLYESRDKNSVA | WNSTRES | QQYHRLPES | 4.56 5.12 3.38 | 4.35 | 3/9 (4.00) |
| KSSQSVLYASENKNSVA | WASTRES | QQYHRLPCS | 4.40 4.81 4.20 | 4.47 | 1/9 (5.25) |
| KSSQGVTYESRNKNSVA | WACTRES | QQYHRLPLS | ND 3.22 ND | 3.22 | 2/9 (3.47) |
| KSSQSVLYESRNHNSVA | WAWTRES | QQGHRLPLS | 4.93 3.98 3.44 | 4.12 | 0/9 |